Test system: Normal human skin fibroblast cells NB1RGB
Assay: Administration test to skin cells (concentration in cells by HPLC)
Conditions: NB1RGB cells cultured 3 days in medium containing the substance; estimated from the volume of recovered cells

## tetrapotassium ubiquinol-1,4-diphosphate
  Concentration in cells after culture: Ubiquinol: 78 µg/mL
  Concentration in cells after culture: Ubiquinol-1,4-diphosphoric acid: 241 µg/mL
  Concentration in cells after culture: Ubiquinone: 14 µg/mL
